## Antibody variant affinities, Ab-14 heavy chain, assay 1

The target is the same throughout: PDVDLGDISGINAS, from the HR2 region of SARS-CoV-2 spike.

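Variants in AAYL49 differ from the parent at up to three CDR positions; double and triple changes were sampled at random. The assay is AlphaSeq: two haploid yeast populations carry antibody and antigen on their surface. Pairs that bind mate more often; barcode pairs of the diploids are counted by sequencing. Scores were corrected for input abundance and mapped to Kd with protein pairs of known affinity run in the same pool. Each pool was mated in three replicate cultures.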

The variants keep the light chain, the linker and the frameworks of Ab-14 (scFv order VH, a (GGGGS)3 linker, VL).
VH: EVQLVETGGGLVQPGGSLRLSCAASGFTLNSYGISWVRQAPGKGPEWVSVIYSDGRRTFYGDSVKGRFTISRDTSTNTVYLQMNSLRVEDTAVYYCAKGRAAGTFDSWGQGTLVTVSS
VL: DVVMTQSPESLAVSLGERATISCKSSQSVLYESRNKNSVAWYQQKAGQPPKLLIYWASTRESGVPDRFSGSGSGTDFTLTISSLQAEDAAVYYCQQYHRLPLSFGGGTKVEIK

The parent's heavy chain CDRs are GFTLNSYGIS, VIYSDGRRTFYGDSVK, GRAAGTFDS; each variant's own CDRs replace them letter for letter.
Numbers give log10(Kd / nM), so 0 is 1 nM and 3 is 1 µM. Smaller is tighter.
An entry "nd" has no value in the source: the pair was not observed among the diploids in that replicate. This suggests poor binding but is not conclusive.
Empty control strains, which show no peptide, gave a signal in 15% of pairings with library AAYL49; the median was 4.06 and 95% of these signals were weaker than 2.83. No background was subtracted. For each scFv, signals with the empty controls are counted beside the result, with their mean in brackets.

{"CDR-H1": "GFTLNSYHIS", "CDR-H2": "VIYSDGRRTFYEDTVK", "CDR-H3": "GRAAGTFDS", "log10 Kd, replicates": "nd / 5.40 / nd", "empty controls": "1 of 9 (4.31)"}
{"CDR-H1": "GFTLNSYQIS", "CDR-H2": "WIYSDGRRTFYGDSVK", "CDR-H3": "GRAAGTFDS", "log10 Kd, replicates": "nd / 4.62 / nd", "empty controls": "1 of 9 (3.02)"}
{"CDR-H1": "GFTMNSLGIS", "CDR-H2": "VIYSFGRRTFYGDSVK", "CDR-H3": "GRAAGTFDS", "log10 Kd, replicates": "nd / nd / nd", "empty controls": "0 of 9"}
{"CDR-H1": "GFTLNSYPIS", "CDR-H2": "VLYSDGRRTFYGKSVK", "CDR-H3": "GRAAGTFDS", "log10 Kd, replicates": "nd / 3.01 / nd", "empty controls": "1 of 9 (3.25)"}
{"CDR-H1": "GFCLNSYGRS", "CDR-H2": "VMYSDGRRTFYGDSVK", "CDR-H3": "GRAAGTFDS", "log10 Kd, replicates": "5.63 / 4.00 / nd", "empty controls": "2 of 9 (4.44)"}
{"CDR-H1": "GFTPNSYGIS", "CDR-H2": "VIYSDGRRTFYGGSVM", "CDR-H3": "GRAAGTFDS", "log10 Kd, replicates": "nd / nd / nd", "empty controls": "1 of 9 (3.61)"}
{"CDR-H1": "DFTLNSYGIS", "CDR-H2": "VIYSDGRRTFHGDSVK", "CDR-H3": "VRAAGTFDS", "log10 Kd, replicates": "nd / nd / nd", "empty controls": "0 of 9"}
{"CDR-H1": "GFWLNSYGIY", "CDR-H2": "VIYSTGRRTFYGDSVK", "CDR-H3": "GRAAGTFDS", "log10 Kd, replicates": "nd / nd / 3.61", "empty controls": "2 of 9 (4.05)"}
{"CDR-H1": "GFTLNSYGIS", "CDR-H2": "VIYSDGKRTRNGDSVK", "CDR-H3": "GRAAGTFDS", "log10 Kd, replicates": "nd / nd / nd", "empty controls": "1 of 9 (2.90)"}
{"CDR-H1": "GFTLWSYGIS", "CDR-H2": "NIYSDGRRTFYGDSVK", "CDR-H3": "GRSAGTFDS", "log10 Kd, replicates": "nd / 3.91 / nd", "empty controls": "3 of 9 (3.94)"}
{"CDR-H1": "GFTLNSYGIS", "CDR-H2": "VIYYDGRRTFYGDSGK", "CDR-H3": "GRAAGTFDS", "log10 Kd, replicates": "nd / nd / nd", "empty controls": "0 of 9"}
{"CDR-H1": "GFTLNSYGIS", "CDR-H2": "RIYSDGRRTQYGDSVK", "CDR-H3": "GRAAVTFDS", "log10 Kd, replicates": "5.54 / nd / nd", "empty controls": "0 of 9"}
{"CDR-H1": "CFTLNSYGIS", "CDR-H2": "VIYSDGRRTFYGDSPI", "CDR-H3": "GRAAGTFDS", "log10 Kd, replicates": "nd / 3.96 / 5.25", "empty controls": "3 of 9 (3.86)"}
{"CDR-H1": "GFTLNSYGIS", "CDR-H2": "VIYSDGRRTFYGEPVK", "CDR-H3": "GAAAGTFDS", "log10 Kd, replicates": "1.07 / 0.98 / 0.95", "empty controls": "0 of 9"}
{"CDR-H1": "GFTLNSYGIK", "CDR-H2": "WIYSDGRRTFYGDSVK", "CDR-H3": "RRAAGTFDS", "log10 Kd, replicates": "nd / 3.94 / nd", "empty controls": "1 of 9 (4.65)"}
{"CDR-H1": "GFTLNSPGIS", "CDR-H2": "VIYSDGRRTFYGDSVK", "CDR-H3": "GRAAGYFCS", "log10 Kd, replicates": "nd / nd / 4.99", "empty controls": "0 of 9"}
{"CDR-H1": "GFSLNSYGIS", "CDR-H2": "VIYEDGRRTFYGDSVK", "CDR-H3": "GRQAGTFDS", "log10 Kd, replicates": "nd / nd / 2.76", "empty controls": "2 of 9 (2.98)"}
{"CDR-H1": "CFTLNPYGIQ", "CDR-H2": "VIYSDGRRTFYGDSVK", "CDR-H3": "GRAAGTFDS", "log10 Kd, replicates": "nd / 3.39 / 3.13", "empty controls": "4 of 9 (4.03)"}
{"CDR-H1": "GFTLNSYEIS", "CDR-H2": "VIYSDGMRTFYGDSVK", "CDR-H3": "GVAAGTFDS", "log10 Kd, replicates": "nd / 2.87 / nd", "empty controls": "0 of 9"}
{"CDR-H1": "GFTLNSYGIS", "CDR-H2": "VIYSDGRREFYGDSVK", "CDR-H3": "GAAAHTFDS", "log10 Kd, replicates": "nd / nd / nd", "empty controls": "0 of 9"}
{"CDR-H1": "GFTLNSYGIS", "CDR-H2": "VIYSDGRRTFYGDSVK", "CDR-H3": "GRASGTFRS", "log10 Kd, replicates": "1.80 / 1.77 / 2.06", "empty controls": "1 of 9 (5.45)"}
{"CDR-H1": "GFTLNSDGPS", "CDR-H2": "VIYSFGRRTFYGDSVK", "CDR-H3": "GRAAGTFDS", "log10 Kd, replicates": "nd / nd / nd", "empty controls": "1 of 9 (4.00)"}
{"CDR-H1": "GFTVNSYGIS", "CDR-H2": "VIYSDGRRTFYGDSVK", "CDR-H3": "GRAAGCFTS", "log10 Kd, replicates": "0.82 / 1.11 / 1.56", "empty controls": "2 of 9 (4.34)"}
{"CDR-H1": "GFTLASYGSS", "CDR-H2": "VIYSDGRRTFYRDSVK", "CDR-H3": "GRAAGTFDS", "log10 Kd, replicates": "nd / nd / 3.11", "empty controls": "1 of 9 (3.76)"}
{"CDR-H1": "GFTLNKYGIS", "CDR-H2": "VIYSDGRFTFYGDSVK", "CDR-H3": "GRAAGTFDS", "log10 Kd, replicates": "4.53 / nd / nd", "empty controls": "1 of 9 (3.92)"}

For reference, 3 entries of the list once more:

| CDR-H1 | CDR-H2 | CDR-H3 | log10 Kd, replicates | empty controls |
|---|---|---|---|---|
| GFWLNSYGIY | VIYSTGRRTFYGDSVK | GRAAGTFDS | nd / nd / 3.61 | 2 of 9 (4.05) |
| GFTLNSYGIS | RIYSDGRRTQYGDSVK | GRAAVTFDS | 5.54 / nd / nd | 0 of 9 |
| GFTMNSLGIS | VIYSFGRRTFYGDSVK | GRAAGTFDS | nd / nd / nd | 0 of 9 |

Values reported by Engelhart et al. 2022, doi:10.1038/s41597-022-01779-4 (FLAb copy).